Counter-ions that a name gives are not always drawn. Like-named read-outs stand apart in the source and are kept apart here.
Key:
HCT-116 (p53—/—) = test: Cell growth assay (WST-8); format: cell-based; conditions: Homo sapiens, HCT-116, read-out: IC50 HCT-116 (p53—/—)
HCT-116 (p53 wild-type) = test: Cell growth assay (WST-8); format: cell-based, human
PC-3 (deleted p53) = test: Cell growth assay (WST-8); format: cell-based; conditions: read-out: IC50 PC-3 (deleted p53)
LNCAP (p53 wild-type) = test: Cell growth assay (WST-8); format: cell-based, human; conditions: read-out: IC50 LNCAP (p53 wild-type)
RS4; 11 (p53 wt) = test: cells; conditions: Homo sapiens, RS4-11, read-out: RS4; 11 (p53 wt) IC50 (μM)
SJSA-1 (p53 wild-type) = test: Cell growth assay (WST-8); format: cell-based
[1] = Homo sapiens, HCT-116, read-out: IC50 HCT-116 (p53 wild-type)
[2] = Homo sapiens, SJSA-1, read-out: IC50 SJSA-1 (p53 wild-type)

Row | Compound | IC50 (HCT-116 (p53—/—)) | IC50 (HCT-116 (p53 wild-type); [1]) | IC50 (PC-3 (deleted p53)) | IC50 (LNCAP (p53 wild-type)) | IC50 (RS4; 11 (p53 wt)) | IC50 (SJSA-1 (p53 wild-type); [2]) | IC50 (LNCAP (p53 wild-type); Homo sapiens, LNCaP) | IC50 (SJSA-1 (p53 wild-type); read-out: IC50 SJSA-1 (p53 wild-type)) | IC50 (HCT-116 (p53 wild-type); read-out: IC50 HCT-116 (p53 wild-type))
1 | CC(C)(C)C[C@@H]1N[C@@H](C(=O)N[C@H]2C[C@@](C)(O)C2)[C@H](c2cccc(Cl)c2)[C@]12C(=O)Nc1cc(Cl)ccc12 [(2′S,3′R,4′R,5′R)-6-Chloro-4′-(3-chloro-phenyl)-2′-(2,2-dimethyl-propyl)-2-oxo-1,2-dihydro-spiro[indole-3,3′-pyrrolidine]-5′-carboxylic acid (3-hydroxy-3-methyl-cyclobutyl)-amide, trifluoroacetate] | 17300 nM | 600 nM | – | – | – | – | – | – | –
2 | CC(C)(C)C[C@@H]1N[C@@H](C(=O)N[C@H]2C[C@@](C)(O)C2)[C@H](c2cccc(Cl)c2)[C@]12C(=O)Nc1cc(Cl)c(F)cc12 [(2′S,3′R,4′R,5′R)-6-Chloro-4′-(3-chloro-phenyl)-2′-(2,2-dimethyl-propyl)-5-fluoro-2-oxo-1,2-dihydro-spiro[indole-3,3′-pyrrolidine]-5′-carboxylic acid (3-hydroxy-3-methyl-cyclobutyl)-amide, trifluoroacetate] | 21000 nM | 200 nM | 26700 nM | – | – | – | – | – | –
3 | CC(C)(C)C[C@@H]1N[C@@H](C(=O)N[C@H]2C[C@@](C)(O)C2)[C@H](c2cccc(Cl)c2F)[C@]12C(=O)Nc1cc(F)c(F)cc12 [(2′S,3′R,4′S,5′R)-4′-(3-Chloro-2-fluoro-phenyl)-2′-(2,2-dimethyl-propyl)-5,6-difluoro-2-oxo-1,2-dihydro-spiro[indole-3,3′-pyrrolidine]-5′-carboxylic acid (3-hydroxy-3-methyl-cyclobutyl)-amide, trifluoroacetate] | 16400 nM | 600 nM | 15600 nM | – | – | – | – | – | –
4 | CC(C)(C)C[C@@H]1N[C@@H](C(=O)N[C@H]2C[C@@](C)(O)C2)[C@H](c2cccc(F)c2F)[C@]12C(=O)Nc1cc(Cl)ccc12 [(2′S,3′R,4′S,5′R)-6-Chloro-4′-(2,3-difluoro-phenyl)-2′-(2,2-dimethyl-propyl)-2-oxo-1,2-dihydro-spiro[indole-3,3′-pyrrolidine]-5′-carboxylic acid (3-hydroxy-3-methyl-cyclobutyl)-amide, trifluoroacetate] | 13200 nM | 200 nM | – | – | – | – | – | – | –
5 | CC(C)(C)C[C@@H]1N[C@@H](C(=O)N[C@H]2C[C@@](C)(O)C2)[C@H](c2cccc(Cl)c2F)[C@]12C(=O)Nc1cc(Cl)c(F)cc12 [(2′S,3′R,4′S,5′R)-6-Chloro-4′-(3-chloro-2-fluoro-phenyl)-2′-(2,2-dimethyl-propyl)-5-fluoro-2-oxo-1,2-dihydro-spiro[indole-3,3′-pyrrolidine]-5′-carboxylic acid (3-hydroxy-3-methyl-cyclobutyl)-amide, trifluoroacetate] | 14200 nM | 200 nM | 29800 nM | – | – | – | – | – | –
6 | CC(C)(C)C[C@H]1N[C@@H](C(=O)N[C@H]2C[C@@](C)(O)C2)[C@H](c2cccc(F)c2F)[C@@]12C(=O)Nc1cc(Cl)ccc12 [C027] | > 10000 nM | < 3000 nM | – | – | – | – | – | – | –
7 | CC(C)(C)C[C@H]1N[C@@H](C(=O)N[C@H]2C[C@@](C)(O)C2)[C@H](c2cccc(Cl)c2F)[C@@]12C(=O)Nc1cc(F)ccc12 [C031] | > 10000 nM | < 3000 nM | – | – | – | – | – | – | –
8 | CC(C)(C)C[C@H]1N[C@@H](C(=O)N[C@H]2C[C@@](C)(O)C2)[C@H](c2cccc(Cl)c2)[C@@]12C(=O)Nc1cc(Cl)ccc12 [C034] | > 10000 nM | < 3000 nM | – | – | – | – | – | – | –
9 | CC(C)(C)C[C@H]1N[C@@H](C(=O)NC2CCC(O)CC2)[C@H](c2cccc(Cl)c2F)[C@@]12C(=O)Nc1cc(F)c(F)cc12 (stereo partly drawn) [MI-786] | – | 500 nM | 14400 nM | 1200 nM | – | – | – | – | –
10 | CC(C)(C)C[C@H]1N[C@@H](C(=O)NC2CCC(O)CC2)[C@H](c2cccc(F)c2F)[C@@]12C(=O)Nc1cc(Cl)ccc12 (stereo partly drawn) [MI-7102] | 26800 nM | 200 nM | 19100 nM | – | 0.46 µM | 420 nM | 250 nM | – | –
11 | CC(C)(C)C[C@H]1N[C@@H](C(=O)NC2CCC(O)CC2)[C@H](c2cccc(Cl)c2F)[C@@]12C(=O)Nc1cc(F)c(F)cc12 (stereo partly drawn) [MI-7104] | 16600 nM | – | 16500 nM | 490 nM | 0.52 µM | – | – | 900 nM | 370 nM
12 | CC(C)(C)C[C@H]1N[C@@H](C(=O)NC2CCC(O)CC2)[C@H](c2cccc(Cl)c2F)[C@@]12C(=O)Nc1cc(F)ccc12 (stereo partly drawn) [MI-7105] | 18700 nM | 280 nM | 21300 nM | – | 0.37 µM | 260 nM | 180 nM | – | –
13 | CC(C)(C)C[C@@H]1N[C@@H](C(=O)NC2CCC(O)CC2)[C@H](c2cccc(F)c2F)[C@]12C(=O)Nc1cc(Cl)ccc12 (stereo partly drawn) [MI-710201, (2′S,3′R,4′S,5′R)-6-Chloro-4′-(2,3-difluoro-phenyl)-2′-(2,2-dimethyl-propyl)-2-oxo-1,2-dihydro-spiro[indole-3,3′-pyrrolidine]-5′-carboxylic acid (4-hydroxy-cyclohexyl)-amide, trifluoroacetate] | – | 250 nM | 19300 nM | – | 0.54 µM | 570 nM | – | – | –
14 | CC(C)(C)C[C@@H]1N[C@@H](C(=O)NC2CCC(O)CC2)[C@H](c2cccc(Cl)c2F)[C@]12C(=O)Nc1cc(Cl)c(F)cc12 (stereo partly drawn) [MI-710301] | 11900 nM | 920 nM | 12500 nM | – | 0.16 µM | 130 nM | – | – | –
15 | CC(C)(C)C[C@@H]1N[C@@H](C(=O)NC2CCC(O)CC2)[C@H](c2cccc(Cl)c2F)[C@]12C(=O)Nc1cc(F)c(F)cc12 (stereo partly drawn) [MI-710401, (2′S,3′R,4′S,5′R)-4′-(3-Chloro-2-fluoro-phenyl)-2′-(2,2-dimethyl-propyl)-5,6-difluoro-2-oxo-1,2-dihydro-spiro[indole-3,3′-pyrrolidine]-5′-carboxylic acid (4-hydroxy-cyclohexyl)-amide, trifluoroacetate] | 16600 nM | 370 nM | 16500 nM | – | 0.66 µM | 900 nM | 490 nM | – | –
16 | CC(C)(C)C[C@@H]1N[C@@H](C(=O)NC2CCC(O)CC2)[C@H](c2cccc(Cl)c2)[C@]12C(=O)Nc1cc(Cl)ccc12 (stereo partly drawn) [MI-710601, (2′S,3′R,4′R,5′R)-6-Chloro-4′-(3-chloro-phenyl)-2′-(2,2-dimethyl-propyl)-2-oxo-1,2-dihydro-spiro[indole-3,3′-pyrrolidine]-5′-carboxylic acid (4-hydroxy-cyclohexyl)-amide, trifluoroacetate] | 11500 nM | – | 18400 nM | – | 0.13 µM | 380 nM | 210 nM | – | –
